The values that follow come from patent US6162823A, “LTA4 hydrolase inhibitors” (G.D. Searle & Co., priority 1997, dated 2000).

This experiment concerns the target T1, recombinant human LTA4 hydrolase (rhLTAH) (Homo sapiens, UniProt P09960).
T1 construct: made in house; host or cells: Spodoptera frugiperda Sf-9 cells (baculovirus)
T1 sequence (P09960 1-611): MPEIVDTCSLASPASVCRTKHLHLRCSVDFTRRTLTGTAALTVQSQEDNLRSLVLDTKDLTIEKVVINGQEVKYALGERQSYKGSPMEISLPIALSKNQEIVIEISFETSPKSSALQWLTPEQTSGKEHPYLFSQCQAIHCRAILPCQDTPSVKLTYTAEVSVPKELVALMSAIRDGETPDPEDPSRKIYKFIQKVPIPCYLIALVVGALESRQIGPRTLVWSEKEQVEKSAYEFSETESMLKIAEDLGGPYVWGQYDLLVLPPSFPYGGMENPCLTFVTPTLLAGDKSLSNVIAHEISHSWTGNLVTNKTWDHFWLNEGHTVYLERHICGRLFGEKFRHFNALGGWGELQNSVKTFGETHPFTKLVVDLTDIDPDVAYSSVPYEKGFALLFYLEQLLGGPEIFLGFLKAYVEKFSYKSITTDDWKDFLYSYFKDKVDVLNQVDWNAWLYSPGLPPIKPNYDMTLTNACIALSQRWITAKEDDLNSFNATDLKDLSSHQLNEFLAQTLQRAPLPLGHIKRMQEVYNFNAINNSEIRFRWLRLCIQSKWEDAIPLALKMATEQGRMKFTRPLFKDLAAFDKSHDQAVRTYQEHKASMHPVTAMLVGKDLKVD
Briefly: Recombinant Human LTA Hydrolase Assay for LTA Hydrolase Inhibitor Activity. The format is biochemical. Particulars: 10 min preincubation with 250 ng enzyme, LTA4 substrate, room temperature, pH 7.4.

As a reminder, the IC50 is the concentration at which inhibition is half-maximal.

SMILES strings stand for the structures. Structures can show the parent of a compound that is named as a salt.

`CCN(CCCOc1ccc(Cc2ccsc2)cc1)CCC(=O)NS(C)(=O)=O` [Example 15, 3-[Ethyl[3-[4-[(3-thienyl)methyl]phenoxy]propyl]-amino]-N-(methylsulfonyl)propanamide monohydrochloride]: the IC50 is 430 nM.
